Assay: Intrinsic clearance in CD-1 mouse at 0.5 mg/kg, iv
Assay type: ADME, organism-based
Details: in vivo

CCN1CCN(Cc2ccc(Nc3ncc(F)c(-c4cc(F)c5nc(C)n(C(C)C)c5c4)n3)nc2)CC1 [ABEMACICLIB]
CL: 1.97 L/h/kg

Source: ChEMBL document CHEMBL5550128, “Discovery and preclinical evaluations of TQB3616, a novel CDK4-biased inhibitor” (Bioorg Med Chem Lett, 2024)
